Measurements: patent EP4821935A1, “MACROCYCLIC COMPOUND CONTAINING AMIDE SUBSTITUTION” (dated 2026)

Tests used:
Capan-1 cells = assay: Assay for inhibitory activity for Capan-1 cell proliferation (CCK-8); conditions: read-out: Inhibitory activity IC50 for Capan-1 cell proliferation, 5 days incubation, CCK-8, 20000 nM-9.1 nM
Procedure: Capan-1 cells in a well-growing state were collected into a centrifuge tube, adjusted to a cell density of 1.5 × 10^4 cells/mL, and inoculated onto a 96-well plate (100 µL/well). The compounds were added using a nanoliter pipettor such that the final concentrations of the compounds were 20000 nM-9.1 nM (the addition was performed in duplicate). Meanwhile, a control was set. After 5 days of incubation in the cell incubator, the assay reagent CCK-8 (manufacturer: Dojindo Laboratories, Beijing; 10 µL/well) was added. After 4 h of incubation in the cell incubator, the absorbance values were measured at 450 nm on a PerkinElmer Envision microplate reader. A four-parameter analysis was performed, a dose-response curve was fitted, and IC50 was calculated. A represents that IC50 < 100 nM; B represents that 100 nM ≤ IC50 < 500 nM. Table 1. Results of cell proliferation inhibition assay for compounds

AsPc-1 cells = assay: Assay for inhibitory activity for AsPc-1 cell proliferation (CCK-8); conditions: read-out: Inhibitory activity IC50 for AsPc-1 cell proliferation, 72 h incubation, CCK-8, 5000 nM-0.31 nM
Procedure: AsPc-1 cells in a well-growing state were collected into a centrifuge tube, adjusted to a cell density of 3 × 10^4 cells/mL, and inoculated onto a 96-well plate (100 µL/well). The compounds were added using a nanoliter pipettor such that the final concentrations of the compounds were 5000 nM-0.31 nM (the addition was performed in duplicate). Meanwhile, a control was set. After 72 h of incubation in the cell incubator, the assay reagent CCK-8 (manufacturer: Dojindo Laboratories; 10 µL/well) was added. After 3 h of incubation in the cell incubator, the absorbance values were measured at 450 nm on a PerkinElmer Envision microplate reader. A four-parameter analysis was performed, a dose-response curve was fitted, and IC50 was calculated. A represents that IC50 < 100 nM; B represents that 100 nM ≤ IC50 < 500 nM.

IC50 (AsPc-1 cells): < 100 nM
Compound: CCn1c(-c2cc(N3CCN(C)CC3)cnc2[C@H](C)OC)c2c3cc(ccc31)-c1csc(n1)C[C@H](NC(=O)[C@H](F)Cl)C(=O)N1CCC[C@H](N1)C(=O)OCC(C)(C)C2
IC50 (Capan-1 cells): < 100 nM
